The chains behind the UniProt entries cited, without tags or fusion partners.
UniProt P00533, whole entry: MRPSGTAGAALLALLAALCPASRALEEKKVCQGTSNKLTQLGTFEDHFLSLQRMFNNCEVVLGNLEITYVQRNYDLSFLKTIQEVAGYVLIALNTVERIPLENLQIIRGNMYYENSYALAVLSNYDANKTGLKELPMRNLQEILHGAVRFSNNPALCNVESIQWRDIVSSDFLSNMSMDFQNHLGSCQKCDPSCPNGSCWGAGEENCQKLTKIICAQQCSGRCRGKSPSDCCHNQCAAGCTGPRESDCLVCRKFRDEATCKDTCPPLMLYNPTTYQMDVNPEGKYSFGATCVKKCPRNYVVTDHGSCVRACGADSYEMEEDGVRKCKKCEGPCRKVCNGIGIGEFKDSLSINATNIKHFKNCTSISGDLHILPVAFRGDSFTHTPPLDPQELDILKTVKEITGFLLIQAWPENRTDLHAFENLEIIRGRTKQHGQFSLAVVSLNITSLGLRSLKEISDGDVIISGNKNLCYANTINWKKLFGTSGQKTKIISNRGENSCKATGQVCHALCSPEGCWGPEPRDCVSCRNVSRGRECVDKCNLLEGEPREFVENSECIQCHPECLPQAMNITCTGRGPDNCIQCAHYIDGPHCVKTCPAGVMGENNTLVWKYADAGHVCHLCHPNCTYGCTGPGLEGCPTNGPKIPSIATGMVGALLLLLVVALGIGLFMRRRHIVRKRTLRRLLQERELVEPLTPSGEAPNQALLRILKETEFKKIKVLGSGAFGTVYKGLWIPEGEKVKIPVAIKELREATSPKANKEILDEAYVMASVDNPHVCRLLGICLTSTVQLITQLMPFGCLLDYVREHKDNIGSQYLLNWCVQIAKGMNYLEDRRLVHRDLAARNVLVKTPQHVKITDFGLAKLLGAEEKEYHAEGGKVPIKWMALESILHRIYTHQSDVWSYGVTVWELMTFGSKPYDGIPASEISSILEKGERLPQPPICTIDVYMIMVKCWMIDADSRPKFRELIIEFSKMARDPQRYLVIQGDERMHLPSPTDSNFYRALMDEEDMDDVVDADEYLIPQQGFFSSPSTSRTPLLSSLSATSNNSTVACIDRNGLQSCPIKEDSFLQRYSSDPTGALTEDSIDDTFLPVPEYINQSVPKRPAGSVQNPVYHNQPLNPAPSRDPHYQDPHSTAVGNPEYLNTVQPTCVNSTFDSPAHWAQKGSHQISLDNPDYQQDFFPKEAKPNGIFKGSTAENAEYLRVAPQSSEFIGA

In BindingDB's records for patent US9656988 (Pharmacyclics, 2017):

Biological target: Epidermal growth factor receptor (Homo sapiens, UniProt P00533)

Row | Compound | IC50
1 | CN(C)C(=O)N[C@@H]1CCCN(c2cnc(C(N)=O)c(Nc3ccc(C4CCN(C5CC5)CC4)cc3)n2)C1 [US9656988, Example 206] | in the range around 0.55 µM
2 | CC#CC(=O)N1CCC[C@@H](N(C)c2cnc(C(N)=O)c(Nc3ccc(C(=O)N4CCOCC4)cc3)n2)C1 [US9656988, Example 157] | in the range around 5.5 µM
